Antibody variant affinities, Ab-95 light chain, assay 2

From the AlphaSeq antibody data of Engelhart et al. 2022 (doi:10.1038/s41597-022-01779-4), copy in the FLAb collection.

Binding partner: SARS-CoV-2 spike HR2 peptide, sequence PDVDLGDISGINAS.

Ab-95 is the parent antibody, in scFv form: VH, then a 15-residue (Gly4Ser)3 linker, then VL. The heavy chain is unchanged in all variants.
VH: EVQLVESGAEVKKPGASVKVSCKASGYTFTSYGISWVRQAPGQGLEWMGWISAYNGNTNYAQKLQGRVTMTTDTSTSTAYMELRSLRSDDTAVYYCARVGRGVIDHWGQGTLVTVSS
VL: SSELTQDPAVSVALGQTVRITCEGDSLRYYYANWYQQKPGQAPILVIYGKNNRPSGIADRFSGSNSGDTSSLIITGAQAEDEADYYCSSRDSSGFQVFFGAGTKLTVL

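Phage display of a naive human antibody library on the peptide gave the parent. Variants in AAYL52 differ from the parent at up to three CDR positions; double and triple changes were sampled at random. In AlphaSeq, yeast of one mating type display the scFv and yeast of the other type display the target. Mating (16 h, 30 °C) was followed by selection of diploids and sequencing of their barcodes. The ratio of observed to expected reads was calibrated, replicate by replicate, on BCL2-family standards whose Kd was known from biolayer interferometry. Mating was done three times.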

Variants are written as CDR1, CDR2 and CDR3 of the light chain (limits as in the source). Parent: EGDSLRYYYAN, GKNNRPS, SSRDSSGFQVF.
The read-out is the apparent dissociation constant on a log10 scale (nM): the lower, the stronger.
Averages over replicates are reported, and they cover detected replicates only.
A pair that was not seen in that replicate is written "nd"; this usually means weak binding, but a binder can also be missed.
Parent in this assay: reference entry 2.31, copy in this library 2.25.
Background: pairings of library AAYL52 with three empty control strains gave a value in 28% of cases (median 3.91, 5th percentile 2.90). Values in that range, when seen in few replicates, are hard to tell from nonspecific mating. Also given: how often the same scFv was detected with the empty control strains, with their mean in brackets.

CDR-L1 | CDR-L2 | CDR-L3 | log10 Kd, replicates | mean log10 Kd (nM) | control signals
EGDSLRYYYFN | GKNNCGS | SSRDSSGFQVF | nd 4.37 2.98 | 3.68 | 6/9 (4.08)
EGDSLHYYYAM | GKNNRPS | SSRDSSGFQVF | nd nd nd | nd | 1/9 (2.95)
EGDSLVYYYAN | GKNNRPS | SSRDSSGFFWF | 3.18 2.70 2.77 | 2.89 | 2/9 (4.59)
GGDSLRYYCAN | GKNNRPS | SSRDSSGEQVF | 2.87 3.29 3.07 | 3.07 | 4/9 (4.15)
EGDSLRYYYHN | GKDNRPS | SDRDSSGFQVF | nd 4.22 3.81 | 4.02 | 5/9 (3.77)
EGDSCRYYYAN | GKNNRPS | SSFDSSPFQVF | 4.23 nd nd | 4.23 | 4/9 (3.59)
EGDSLYYYYFN | GKNDRPS | SSRDSSGFQVF | 5.14 3.44 3.91 | 4.16 | 3/9 (4.14)
EKDSLRYYYAN | GKMNRPF | SSRDSSGFQVF | nd nd nd | nd | 1/9 (4.04)
MGDSLRYYYAN | GKNNRCS | SSRDSNGFQVF | 3.32 2.84 3.07 | 3.08 | 5/9 (3.91)
ECDSLRYYYAN | GKNNRPS | SIRDSSGFQVF | 3.00 2.95 2.74 | 2.89 | 3/9 (4.28)
EGVSWRYYYAN | GKNNRPS | SSRDSSCFQVF | 3.96 4.35 nd | 4.16 | 4/9 (4.44)
EGDSLRYYYAN | GKNNSQS | SWRDSSGFQVF | 3.43 3.65 3.44 | 3.51 | 6/9 (4.19)
EGDSLRYYYAN | GKNNRNS | SWRDSSGFQVF | 2.69 2.86 3.25 | 2.93 | 3/9 (4.46)
EGLSLRYYYAN | GKNNRPS | SSRDSSGFGVF | 3.01 2.38 3.49 | 2.96 | 1/9 (4.07)
EGDSLRYYYAN | GKNNPPS | SSNDSSGFQVF | nd nd 3.86 | 3.86 | 3/9 (3.23)
YGDSLLYYYAN | GKNNRPS | SSRDSSGAQVF | 3.34 2.78 3.19 | 3.11 | 0/9
EGDSLRYYYAN | GKNTRPS | SSRDSCGFPVF | 2.32 2.60 1.72 | 2.21 | 2/9 (4.19)
EGDSLRVYYAV | GKNNRPS | SSRDSSGFQVF | 4.64 nd 4.10 | 4.37 | 6/9 (3.99)
EGDSARTYYMN | GKNNRPS | SSRDSSGFQVF | 3.71 3.10 3.93 | 3.58 | 4/9 (4.31)
EGDSLRYYYAF | GKGNRPS | SSRASSGFQVF | 3.79 nd nd | 3.79 | 3/9 (3.32)
EGDSLRYYYAN | GKHNRPS | SSRLSTGFQVF | nd nd nd | nd | 4/9 (3.55)
EGDSLRYYYAN | GKNNRPE | SSWDSSGFCVF | 2.31 2.52 2.91 | 2.58 | 3/9 (4.22)
EGDQLRYYYDN | GFNNRPS | SSRDSSGFQVF | 4.43 3.55 nd | 3.99 | 4/9 (3.94)
EGDSLRYKYAN | GKNNRPS | SSRDSSGIQVR | 1.77 1.83 1.66 | 1.75 | 2/9 (4.14)
EGDSSRYYYAN | GKNNRPS | SSIDSSGRQVF | 4.80 nd nd | 4.80 | 2/9 (4.74)
EGDSLRYYYAN | GKLNRPS | SSRDSSHIQVF | 4.91 nd nd | 4.91 | 0/9
EGDSLRYDYAN | GRNNIPS | SSRDSSGFQVF | 2.47 2.56 2.57 | 2.53 | 4/9 (4.20)
EGISLRYYYAN | GKNVRPS | SSRDSSGVQVF | 3.49 3.12 3.72 | 3.44 | 3/9 (4.30)
EGDSLRYYKAN | GKNNRPS | SRRDSSGLQVF | nd nd nd | nd | 3/9 (3.37)
EGDSLRYYYAN | GKNNRGS | SSRDSSGFIVN | 3.32 4.65 2.76 | 3.58 | 5/9 (4.43)
EGDSLRYYYAN | GKNNRPS | SPRDSSGFQVK | 3.72 2.85 2.88 | 3.15 | 4/9 (4.20)
EGDSLRYYYAI | GKNHNPS | SSRDSSGFQVF | nd nd nd | nd | 0/9
EHDSLRYYYAN | GKNNRPS | SSLDSSDFQVF | 3.29 nd nd | 3.29 | 1/9 (3.82)
EGDSLRYYYAN | GKNNRPS | SVRESYGFQVF | 2.41 2.20 2.95 | 2.52 | 0/9
EPDSLRYSYAN | HKNNRPS | SSRDSSGFQVF | 2.92 nd nd | 2.92 | 0/9
EGVSLRYYRAN | GKNNRPL | SSRDSSGFQVF | 2.67 2.64 2.21 | 2.51 | 1/9 (3.41)
EGDSLRYYYAG | GKNNRPS | SSRDSAGFQVL | nd nd 4.03 | 4.03 | 4/9 (3.32)
EGDSLRYYYAN | GKNNNPS | SSRDKSGFQVI | 4.28 3.80 nd | 4.04 | 1/9 (5.20)

6 of these entries, quoted again:

CDR-L1 | CDR-L2 | CDR-L3 | log10 Kd, replicates | mean log10 Kd (nM) | control signals
EGLSLRYYYAN | GKNNRPS | SSRDSSGFGVF | 3.01 2.38 3.49 | 2.96 | 1/9 (4.07)
EGDSSRYYYAN | GKNNRPS | SSIDSSGRQVF | 4.80 nd nd | 4.80 | 2/9 (4.74)
EGDSLRYYYAG | GKNNRPS | SSRDSAGFQVL | nd nd 4.03 | 4.03 | 4/9 (3.32)
EGVSWRYYYAN | GKNNRPS | SSRDSSCFQVF | 3.96 4.35 nd | 4.16 | 4/9 (4.44)
EGDSLRYKYAN | GKNNRPS | SSRDSSGIQVR | 1.77 1.83 1.66 | 1.75 | 2/9 (4.14)
EGDSLRYYYAI | GKNHNPS | SSRDSSGFQVF | nd nd nd | nd | 0/9